Source: patent US20240400571A1, “5,6 UNSATURATED BICYCLIC HETEROCYLES USEFUL AS INHIBITORS OF NOD-LIKE RECEPTOR PROTEIN 3” (Merck Sharp & Dohme LLC, priority 2023, published 2024)

By UniProt entry, the sequences of proteins in these tests, tags left out.
UniProt Q96P20, whole entry: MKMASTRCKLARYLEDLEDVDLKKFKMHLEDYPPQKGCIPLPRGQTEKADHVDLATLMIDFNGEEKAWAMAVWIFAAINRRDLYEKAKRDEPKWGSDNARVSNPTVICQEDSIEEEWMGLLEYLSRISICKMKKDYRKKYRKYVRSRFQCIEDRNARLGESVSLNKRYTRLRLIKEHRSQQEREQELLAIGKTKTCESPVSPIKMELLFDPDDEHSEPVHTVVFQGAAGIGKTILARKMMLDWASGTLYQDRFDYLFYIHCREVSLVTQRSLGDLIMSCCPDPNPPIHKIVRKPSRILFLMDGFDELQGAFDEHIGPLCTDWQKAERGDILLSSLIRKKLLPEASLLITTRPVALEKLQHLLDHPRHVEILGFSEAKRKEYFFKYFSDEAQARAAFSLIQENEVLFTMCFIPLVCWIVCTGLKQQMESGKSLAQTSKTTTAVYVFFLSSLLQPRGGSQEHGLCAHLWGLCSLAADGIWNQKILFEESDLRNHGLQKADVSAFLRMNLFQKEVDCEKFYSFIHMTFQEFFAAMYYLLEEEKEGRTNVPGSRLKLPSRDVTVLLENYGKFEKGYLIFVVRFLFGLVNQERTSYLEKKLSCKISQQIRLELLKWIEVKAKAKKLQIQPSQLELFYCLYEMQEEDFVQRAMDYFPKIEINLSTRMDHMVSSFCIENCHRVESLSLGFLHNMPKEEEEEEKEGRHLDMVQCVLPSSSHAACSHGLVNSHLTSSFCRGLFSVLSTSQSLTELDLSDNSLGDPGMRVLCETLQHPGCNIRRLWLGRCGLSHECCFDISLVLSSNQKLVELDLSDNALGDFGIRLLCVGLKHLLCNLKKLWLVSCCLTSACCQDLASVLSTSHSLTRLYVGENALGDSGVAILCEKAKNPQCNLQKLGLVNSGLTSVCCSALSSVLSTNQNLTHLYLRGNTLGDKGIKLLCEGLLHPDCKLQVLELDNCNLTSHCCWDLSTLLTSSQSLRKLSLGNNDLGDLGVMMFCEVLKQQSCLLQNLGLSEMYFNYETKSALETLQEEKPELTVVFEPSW

Molecular target: NLRP3 inflammasome (Homo sapiens, UniProt Q96P20)
Assay: ASC-SPECK formation in THP-1 cells after gramicidin stimulation (NLRP3 inflammasome activation)
Conditions: read-out: EC50 values (nM) for Examples that inhibit NLRP3 inflammasome activation; PMA-treated human monocytic THP-1 cells; compound 1 h before 12.5 μg/ml gramicidin, 3-hour treatment; ASC SPECK imaging
Protocol: The ability of compounds to inhibit NLRP3 inflammasome activation was determined in vitro by monitoring formation of the ASC-SPECK in human monocytic THP-1 cells after stimulation. THP-1 cells (ATCC catalog #TIB-202) were maintained in complete growth media containing Roswell Park Memorial Institute RPMI (ATCC catalog #30-2001), 10% heat inactivated fetal bovine serum, 1× penicillin/streptomycin and 0.05 mM 2-mercaptoethanol. At the start of the assay, undifferentiated THP-1 cells were plated at a density of 20,000 cells per well in a 384-well plate (Poly-D-lysine coated Cell Carrier Ultra microplate, Perkin Elmer catalog #6057500) in complete growth media supplemented with 10 ng/ml phorbol 12-myristate 13-acetate (PMA; Sigma catalog #P8139), and then incubated overnight. The next day, media was replaced with assay media [RPMI (Gibco catalog #11875-093), 0.01% bovine serum albumin (BSA)]. […]
Immunofluorescence staining: Anti-ASC antibody (MBL catalog #D086-3) was desalted and labeled with Alexa 488 antibody labeling kit (Thermo catalog #A20181) prior to use as described below. […] The number of DRAQ5 positive cells containing ASC SPECKS were quantified in each well.
Data analysis: EC50 values were calculated by standard curve-fitting analysis using an internally developed program in TIBCO Spotfire software.

For CCN1CCC[C@@H](n2ccc3c(C)c(-c4ccc(C(F)(F)F)cc4O)nnc32)C1, the EC50 was 35 nM.
